This note sets out measurements from ChEMBL document CHEMBL1130062 (J Med Chem, 1997).

Assay [1] addresses T1, Dihydrofolate reductase (Pneumocystis carinii, UniProt P16184).
T1 sequence (P16184 whole entry): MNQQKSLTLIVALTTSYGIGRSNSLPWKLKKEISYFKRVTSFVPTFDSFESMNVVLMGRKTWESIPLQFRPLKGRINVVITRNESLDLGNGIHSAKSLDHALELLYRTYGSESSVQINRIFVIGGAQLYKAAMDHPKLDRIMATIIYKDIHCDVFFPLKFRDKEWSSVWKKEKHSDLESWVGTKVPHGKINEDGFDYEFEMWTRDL

Assay [2] addresses T2, Bifunctional dihydrofolate reductase-thymidylate synthase (Toxoplasma gondii, UniProt Q07422).
T2 sequence (Q07422 whole entry): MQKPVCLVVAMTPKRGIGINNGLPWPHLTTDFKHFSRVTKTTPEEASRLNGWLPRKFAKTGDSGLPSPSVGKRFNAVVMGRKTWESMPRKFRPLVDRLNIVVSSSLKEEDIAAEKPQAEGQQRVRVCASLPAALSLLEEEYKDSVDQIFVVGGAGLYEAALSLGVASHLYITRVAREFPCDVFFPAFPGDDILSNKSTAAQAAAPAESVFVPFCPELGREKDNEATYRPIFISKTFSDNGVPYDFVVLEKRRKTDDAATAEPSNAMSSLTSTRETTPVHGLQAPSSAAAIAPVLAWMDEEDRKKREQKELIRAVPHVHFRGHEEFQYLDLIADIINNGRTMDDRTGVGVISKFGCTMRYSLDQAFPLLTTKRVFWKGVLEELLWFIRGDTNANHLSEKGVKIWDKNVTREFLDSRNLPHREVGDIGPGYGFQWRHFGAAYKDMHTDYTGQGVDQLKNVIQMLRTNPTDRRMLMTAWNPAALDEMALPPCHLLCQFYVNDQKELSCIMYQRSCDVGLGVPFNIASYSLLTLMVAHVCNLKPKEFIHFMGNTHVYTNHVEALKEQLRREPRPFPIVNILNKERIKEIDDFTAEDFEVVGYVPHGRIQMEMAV

Usually IC50 stands for the midpoint of a concentration-inhibition curve. The low end stands for greater potency in that assay, the high end for weaker potency in that assay.

In turn, `CCc1nc(N)nc(N)c1-c1ccc(Cl)c(/N=N/N2CCOCC2)c1` returned an IC50 in assay [1] of 4700 nM.

In assay [2], `CCc1nc(N)nc(N)c1-c1ccc(Cl)c(/N=N/N(CCOC(C)=O)Cc2ccccc2)c1` came in with an IC50 of 690 nM.
